For this experiment, the target named is Alpha-ketoglutarate-dependent dioxygenase FTO (Homo sapiens, UniProt Q9C0B1).

What is called IC50 is the point on the concentration scale where inhibition reaches its midpoint. A high value points to a need for much substance.

`O=C(O)c1ccccc1-c1c2cc(F)c(=O)cc-2oc2cc(O)c(F)cc12` showed an IC50 of 1430 nM. In other words, the single-digit micromolar range.
